Reference: patent publication US20230288433A1, “DETECTION OF PHOSPHOINOSITIDES IN BLOOD CELLS AS A BIOMARKER FOR ALPHA SYNUCLEIN ASSOCIATED PATHOLOGIES AND A METHOD OF TREATMENT OF PARKINSON'S DISEASE AND THE RELATED NEURODEGENERATIONS” (YISSUM RESEARCH DEVELOPMENT COMPANY OF THE HEBREW …, priority 2021, published 2023)

Test system: muscarinic receptors
Settings: primary cortical neurons from α-Syn−/− mouse brains, 5 DIV, 1 mM; control neurons treated with DMSO solvent set at 100%

## C[N+](C)(C)CCOC(N)=O [carbachol]
  PI4,5P2 signal: 25%
